## Antibody variant affinities, Ab-14 heavy chain, assay B

Target peptide (SARS-CoV-2 spike, HR2 region): PDVDLGDISGINAS

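The parent was found by panning a naive human phage display library on the peptide. Designed CDR sequences, proposed from the first random library and measured here. Several design methods are mixed in this list. Affinity was read by AlphaSeq, a pooled yeast mating assay with surface-displayed partners. Binding brings cells together so that they mate, and sequencing counts the barcode pairs among the diploids. Each replicate has its own calibration line, from reference interactions of the BCL2 family. There are six technical replicates.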

Parent scFv Ab-14: VH joined to VL by a (GGGGS)3 linker. Changes lie in the heavy chain CDRs alone.
VH: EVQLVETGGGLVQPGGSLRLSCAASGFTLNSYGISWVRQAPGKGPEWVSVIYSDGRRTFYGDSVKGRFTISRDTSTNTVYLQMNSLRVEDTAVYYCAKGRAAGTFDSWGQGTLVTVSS
VL: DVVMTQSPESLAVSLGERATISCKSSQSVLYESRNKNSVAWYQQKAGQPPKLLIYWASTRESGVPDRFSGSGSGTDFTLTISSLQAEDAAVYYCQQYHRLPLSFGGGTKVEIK

The parent's heavy chain CDRs are GFTLNSYGIS, VIYSDGRRTFYGDSVK, GRAAGTFDS; each variant's own CDRs replace them letter for letter. The read-out is the apparent dissociation constant on a log10 scale (nM): the lower, the stronger. The mean shown is taken over the replicates in which the pair was detected. Where no diploid with the target was found in any replicate, the entry reads "not detected": below detection, most likely a poor binder, though not proof of it. As a blank, each scFv also met three strains without target: over all heavy chain designs, 1% of these pairings were detected, typically at 2.08 and seldom below 0.84. For each scFv, signals with the empty controls are counted beside the result. A sequence measured in both rounds can read differently, since the two assays cover different ranges. The authors averaged sequences with at least three values out of six and counted those with two or fewer as poor binders.

| CDR-H1 | CDR-H2 | CDR-H3 | mean log10 Kd (nM) | replicates with signal | signal with controls |
|---|---|---|---|---|---|
| GYTLNEYGIS | VIYSDGRRTFYTDSVK | GRFAGTFDS | not detected | 0 of 6 | 0 of 18 |
| GFSLNAYGIS | VIYSDGRRTFYGDSVK | GRTAGTFDS | 0.63 | 6 of 6 | 0 of 18 |
| GFTLNSYGIS | VIYADGRRTFYGDSVK | GEAAGTFKS | -0.07 | 6 of 6 | 0 of 18 |
| GFDLNEYGIS | VIYADGRRTFYTDSVK | GEFAGTFDV | -0.24 | 6 of 6 | 0 of 18 |
| GFTLNSYGIS | VIYADGRRTFYGDRVK | GEAAGTFDS | 0.05 | 6 of 6 | 1 of 18 |
| GFDLDEYGIS | VIYADGRRTAYADSVK | GENAGTFDV | -0.46 | 6 of 6 | 1 of 18 |
| KFDLNSYGIS | VIYSDGRRTFYGDSVK | GKNAGTFDS | 0.92 | 6 of 6 | 0 of 18 |
| GFTLNEYGIS | VIYSDGMRTFYGDSVK | GRTAGTFDK | 0.37 | 6 of 6 | 0 of 18 |
| GFNLNSYGIS | VIYSDGRRTFYADMVK | GRQAGTFDS | 1.86 | 4 of 6 | 0 of 18 |
| SFTLNSYGIS | VIYADGRRTFYGDSVK | GWAAGTFKS | not detected | 0 of 6 | 0 of 18 |
| GFTLNSFGIS | VIYSDGRRTFYADSVK | GRGAGTFDG | not detected | 0 of 6 | 0 of 18 |
| GFDLNEYGIS | VIYADGRRQFYADKVK | GENAGTFDV | -0.11 | 6 of 6 | 0 of 18 |
| GRKLNSYGIS | VIYSDGRRTFYGDSVK | GQAAGTDDD | not detected | 0 of 6 | 0 of 18 |
| GFSLNSYGIS | VIYSDGRRTFYADNVK | GEAAGTFDT | 0.43 | 6 of 6 | 0 of 18 |
| GFTLNKQGIS | VIYSDGRRTFYGDSVK | GMWAGAFDS | 2.31 | 1 of 6 | 0 of 18 |
| GQRLNQYGIS | VIYSDGLRTFYSDSVK | GSAAGTFDS | 2.78 | 1 of 6 | 0 of 18 |
| GFDLEDYGIS | VIYADGRRTAYADSVK | GNVAGTFIS | 0.43 | 6 of 6 | 1 of 18 |
| GFSLNSYGIS | VIYSDGRRTFYADSVK | GTTAGTFDS | -0.31 | 6 of 6 | 1 of 18 |
| GFTLNNYGIS | VIYSDGQRTFYGDSVK | GRAAGTFVS | not detected | 0 of 6 | 0 of 18 |
| GFDLNEYGIS | VIYADGMRTSYVDDVK | GENAGTFDV | -0.42 | 6 of 6 | 0 of 18 |
| GNTLNQYGRS | VIGSDGRRTFYSDSVK | GRAAGVFDS | not detected | 0 of 6 | 0 of 18 |
| GFTLNSYGIS | VIYSDGKRTFYSDSVK | GKTAGTFDS | 0.04 | 6 of 6 | 1 of 18 |
| PFELNSYGIS | VIYADGRRTFYGDSVK | GKAAGTFDV | 1.54 | 5 of 6 | 0 of 18 |
| GFGLMEYGIS | VIYADGMRTSYANSFK | GALAGTFDE | 0.97 | 6 of 6 | 0 of 18 |
| GFDINEYGIS | VIYADGRRTFYADSVK | GNQAGTFDI | -0.18 | 6 of 6 | 0 of 18 |
| GFDLNEYGIS | VIYADGRRTFYADSVK | GTVAGTFDQ | -0.51 | 6 of 6 | 0 of 18 |
| GFDLNEYGIS | VIYADGKRTAYADDVK | GSNAGTFDV | -0.71 | 6 of 6 | 0 of 18 |
| GFDLNSYGIS | VIYSDGRRTFYGDSVK | GRRAGTFNS | not detected | 0 of 6 | 1 of 18 |
| GFDLNEYGIS | VIYADGRRTAYADSVK | GEAAGTFDN | 0.01 | 6 of 6 | 0 of 18 |
| GFDLNEYGIS | VIYSDGRRTFYDDSVK | GQEAGTFDS | 0.04 | 6 of 6 | 0 of 18 |
| GFNLNSYGIS | VIYSDGRRTAYGDSVK | GRTAGTFDS | 0.14 | 5 of 6 | 0 of 18 |
| GFELNSYGIS | VIYSDGRRTFYGDSVK | GRAAGTFRS | not detected | 0 of 6 | 0 of 18 |
| GFDLNEYGIS | VIYADGMRTQYADSVK | GNVAGTFDV | -0.30 | 6 of 6 | 0 of 18 |
| GFDLDEYGIS | VIYADGVRTAYADSVK | GNQAGTFDI | 0.59 | 6 of 6 | 0 of 18 |
| GFTLNSYGIS | VIYSDGRRTFYSDSVK | GRAAGFFDS | not detected | 0 of 6 | 0 of 18 |
| GFDLNEYGIS | VIYADGRRTFYTDNVK | GNNAGTFDS | -0.57 | 6 of 6 | 0 of 18 |
| GEKLNSYGIS | VIYSDGRRTFYLDSVK | GRHAGTFMS | not detected | 0 of 6 | 0 of 18 |
| GFDLNEYGIS | VIYADGMRTAYSDSVK | GNVAGTFDK | -0.55 | 6 of 6 | 0 of 18 |
| GFGLNSYGIS | VIYSDGRRTFYRDSVK | GQTAGTFDS | 1.94 | 6 of 6 | 0 of 18 |
| MFSLNSYGIS | VIYSDGRRTFYGDSVK | GRAAGTFDH | not detected | 0 of 6 | 0 of 18 |
| GFTLNSYGIS | VIYSDGRRTSYGDSTK | GRAAGTFDI | not detected | 0 of 6 | 0 of 18 |
| GFDLEDYGIS | VIYADGQRTFYADSVK | GNVAGTFDV | -0.17 | 6 of 6 | 0 of 18 |
| HFDLNSYGIS | VIYSDGRRTFYADSVK | GRQAGTFDS | 0.63 | 5 of 6 | 0 of 18 |
| GFTLNEYGIS | VIYSDGRRTFYGDAVK | GRNAGTFDS | 1.42 | 2 of 6 | 0 of 18 |
| GFSLNEYGIS | VIYSDGRRTFYGDSVK | GRAAGTFDY | 0.65 | 6 of 6 | 1 of 18 |
| GFTLNDYGIS | VIYSDGRRTFYHDSFK | GRAAGTFDS | not detected | 0 of 6 | 0 of 18 |
| GFCLDSYGSS | VILSDGRRTFYGDSVK | ARAAGTALS | not detected | 0 of 6 | 0 of 18 |
| GFTLNSYGIS | VIYSDGRRTFYGDKVK | GRAAGTPDS | not detected | 0 of 6 | 0 of 18 |
| GFDLNEYGIS | VIYADGRRTAYSDSVK | GEAGGTFDL | -1.28 | 6 of 6 | 0 of 18 |
| GFDLNEYGIS | VIYADGVRTVYADSVK | GNVAGTFDL | -0.21 | 6 of 6 | 1 of 18 |
| GFDLNEYGIS | VIYADGHRTRYSNNVK | GGQGGIGLS | not detected | 0 of 6 | 0 of 18 |
| GFNLDEYGIS | VIYADGRRTFYADSVK | GEVAGTFDL | -0.15 | 6 of 6 | 0 of 18 |
| GFELNSYGIS | VIYSDGRRTAYQDSVK | GKAAGTFDS | 0.38 | 6 of 6 | 0 of 18 |
| GFDLNEYGIS | VIYADGVRTAYANSVK | GEVAGTFDV | 0.21 | 6 of 6 | 0 of 18 |
| GFDLNEYGIS | VIYSDGRRTFYGDSVK | GRAAATFDQ | not detected | 0 of 6 | 1 of 18 |
| GFDLDEYGIS | VIYADGRRTFYADSVK | GQNAGTFDL | -0.65 | 6 of 6 | 0 of 18 |

The last 4 entries again:

{"CDR-H1": "GFELNSYGIS", "CDR-H2": "VIYSDGRRTAYQDSVK", "CDR-H3": "GKAAGTFDS", "mean log10 Kd (nM)": "0.38", "replicates with signal": "6 of 6", "signal with controls": "0 of 18"}
{"CDR-H1": "GFDLNEYGIS", "CDR-H2": "VIYADGVRTAYANSVK", "CDR-H3": "GEVAGTFDV", "mean log10 Kd (nM)": "0.21", "replicates with signal": "6 of 6", "signal with controls": "0 of 18"}
{"CDR-H1": "GFDLNEYGIS", "CDR-H2": "VIYSDGRRTFYGDSVK", "CDR-H3": "GRAAATFDQ", "mean log10 Kd (nM)": "not detected", "replicates with signal": "0 of 6", "signal with controls": "1 of 18"}
{"CDR-H1": "GFDLDEYGIS", "CDR-H2": "VIYADGRRTFYADSVK", "CDR-H3": "GQNAGTFDL", "mean log10 Kd (nM)": "-0.65", "replicates with signal": "6 of 6", "signal with controls": "0 of 18"}

Values reported by Li et al. 2023, doi:10.1038/s41467-023-39022-2 (FLAb copy).